Measurements as given in US8455203B2.

The chains behind the UniProt entries cited, without tags or fusion partners.
UniProt P41145, whole entry: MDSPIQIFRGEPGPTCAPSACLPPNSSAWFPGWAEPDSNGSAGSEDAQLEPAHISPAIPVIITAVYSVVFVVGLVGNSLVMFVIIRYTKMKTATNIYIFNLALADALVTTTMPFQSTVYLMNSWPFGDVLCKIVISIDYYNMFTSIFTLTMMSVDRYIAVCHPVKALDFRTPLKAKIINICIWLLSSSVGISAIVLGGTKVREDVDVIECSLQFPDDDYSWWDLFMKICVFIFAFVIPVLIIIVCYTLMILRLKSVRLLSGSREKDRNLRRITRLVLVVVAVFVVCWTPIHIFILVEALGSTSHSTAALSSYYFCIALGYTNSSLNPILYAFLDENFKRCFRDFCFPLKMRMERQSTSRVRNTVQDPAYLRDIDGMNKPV

Target: KOR-1 receptor (Homo sapiens, UniProt P41145)
Test: ^3H-diprenorphine saturation binding assay on SK12 cells

## ^3H-diprenorphine
  non-specific binding: about 25%
  specific binding: 75%

Only a part of the results on these compounds is given; other tests are left out.
